From patent US10512644B2, “Oligomer-opioid agonist conjugates” (Nektar Therapeutics, priority 2007, dated 2019)

Legend:
[1] = Plasma pharmacokinetics after intravenous dosing in male Sprague-Dawley rats; details: IV 1 mg/kg, PEGylated hydroxycodone
[2] = biological target: cloned human kappa opioid receptor (Homo sapiens (Human), UniProt P41145); assay: cell-based; details: CHO, read-out: KAPPA OPIOID RECEPTOR % max effect

Row | Compound | mean exposure (AUC) as compared to oxycodone [1] | Emax [2] [%]
1 | COCCOCCOCCOCCOCCOCCOCCOCCOCCO[C@H]1CC[C@@]2(O)[C@H]3Cc4ccc(OC)c5c4[C@@]2(CCN3C)[C@H]1O5 [α-6-mPEG9-O-Hydroxycodone, α-6-mPEG9-O-hydroxycodone] | higher mean exposure | –
2 | COCCOCCOCCOCCOCCO[C@H]1CC[C@@]2(O)[C@H]3Cc4ccc(OC)c5c4[C@@]2(CCN3C)[C@H]1O5 [α-6-mPEG5-O-Hydroxycodone, α-6-mPEG5-O-hydroxycodone] | higher mean exposure | –
3 | COc1ccc2c3c1O[C@H]1[C@@H](O)C=C[C@H]4[C@@H](C2)N(C)CC[C@@]341 [Codeine, codeine] | – | 3
4 | COCCOCCOCCO[C@H]1CC[C@@]2(O)[C@H]3Cc4ccc(OC)c5c4[C@@]2(CCN3C)[C@H]1O5 [α-6-mPEG3-O-Hydroxycodone, α-6-mPEG3-O-hydroxycodone] | higher mean exposure | –
